The list shows a part of the results, in another mix than the full data. Calls of active or inactive are those of the source.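 Rule for the calls: active = percent response vs DMSO below 50%; inconclusive = fewer than 70 events counted for the yeast strain; inactive = the rest.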
Assay: RPL19A-GFP expression modulators in yeast, primary screen, cell-based, S. cerevisiae, multiplex flow cytometry, MLPCN (AID 2025);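 note: median channel GFP fluorescence of the barcoded RPL19A-GFP strain; ratio of sample median GFP to plate DMSO average so 100% = DMSO; lower means less RPL19A-GFP as with rapamycin TOR inhibition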
Conditions: S. cerevisiae RPL19A-GFP strain, 3 h, at 10 µM, hits give low values

Row | Compound | percent response vs DMSO
1 | CCc1nc2c(n1)c1c(non1O)c1c2no[n+]1[O-] | inactive: 109%
2 | Cc1ccc(NP(=O)(Oc2ccccc2)Oc2ccccc2)nc1 | inactive: 102%
3 | CC(=O)N1C2C3N(C(C)=O)C1C1N(C(C)=O)C(C(N1C(C)=O)N3C(C)=O)N2C(C)=O | inactive: 102%
4 | O=[N+]([O-])c1cccc2n[nH]nc12 | inactive: 102%
5 | COc1ccc(C2=NCC(CBr)S2)cc1 (configuration not stated) | inactive: 103%
6 | CC1CCN(C(=O)Oc2c(Cl)cc(Cl)c3cccnc23)CC1 | inactive: 96.8%
7 | CN(C)C(=O)OCCc1n(C)cc[n+]1C | inactive: 101%
8 | CC(C)=N/N=C(\N)N[N+](=O)[O-] | inactive: 101%
9 | CCN(/C(=N/P(=O)(N1CCOCC1)N1CCOCC1)N1CCOCC1)c1ccc(OC)cc1 | inactive: 98.6%
10 | C[N+]1=C2C=CC=CC=C2SC12C([N+](=O)[O-])=CC([N+](=O)[O-])=C[C-]2[N+](=O)[O-] (configuration not stated) | inactive: 93.9%
11 | Nc1ccc([As](=O)(O)c2ccc(N)cc2)cc1 | inactive: 96.1%
12 | c1nnnn1CCn1cnnn1 | inactive: 96.8%
13 | O=P(Nc1nccs1)(c1ccccc1)c1ccccc1 | inactive: 100%
14 | CC(C)C(=O)NC(Sc1ccccc1)C(Cl)(Cl)Cl (configuration not stated) | inactive: 101%
15 | C[C@H]1OP(=O)(Oc2ccccc2)[C@H](O)[C@H](O)[C@H]1N=[N+]=[N-] (some centres not stated) | inactive: 97.8%
16 | O=P(Nc1nc2ccccc2s1)(c1ccccc1)c1ccccc1 | inactive: 104%
17 | CN(C)C1(CNC(=O)c2ccc(Cl)c(S(N)(=O)=O)c2)CCCCC1 | inactive: 103%
18 | O=P(Nc1ccccn1)(c1ccc(Br)cc1)c1ccc(Br)cc1 | inactive: 103%
19 | O=C(OC1CN2CCC1CC2)c1cccc(Cl)c1 (configuration not stated) | inactive: 98.8%
20 | C(Cc1nn[nH]n1)Cc1nn[nH]n1 | inactive: 101%
21 | Nc1ccc([As](=O)(O)c2ccc([N+](=O)[O-])cc2)cc1 | inactive: 102%
22 | O=[As](O)(c1ccccc1)c1ccc(O)cc1 | inactive: 94.7%
23 | CC(=O)NC(SC(=S)N(C)C)C(Cl)(Cl)Cl (configuration not stated) | inactive: 90.2%
24 | O=[N+]([O-])c1ncn(CCn2cnc([N+](=O)[O-])n2)n1 | inactive: 97.9%

Row | Compound | percent response vs DMSO
25 | O=[N+]([O-])c1ccc(O)c(/C=N/Nc2ccc([N+](=O)[O-])cc2[N+](=O)[O-])c1 | inactive: 100%
26 | Cc1ccc(NP(=O)(Oc2cccc(C)c2)Oc2cccc(C)c2)nc1 | inactive: 106%
27 | CCOC(=O)NC(Sc1ccccc1)C(Cl)(Cl)Cl (configuration not stated) | inactive: 99.9%
28 | c1ccc(-c2nn[nH]n2)c(-c2nn[nH]n2)c1 | inactive: 96.8%
29 | O=C(NC1CCS(=O)(=O)C1)NP(=S)(Oc1ccccc1)Oc1ccccc1 (configuration not stated) | inactive: 91.7%
30 | CCNC(=S)/N=C(\N)N[N+](=O)[O-] | inactive: 99.4%
31 | CN(C)C(=O)Oc1noc2ccccc12 | inactive: 95.5%
32 | CC(NC(=O)COC(=O)C(O)(c1ccccc1)c1ccccc1)c1ccccc1 (configuration not stated) | inactive: 101%
33 | Cc1ccccc1OP(=O)(Nc1ccccn1)Oc1ccccc1C | inactive: 96.5%
34 | CCC(=O)N1C2C3N(C(=O)CC)C1C1N(C(=O)CC)C(C(N1C(=O)CC)N3C(=O)CC)N2C(=O)CC | inactive: 103%
35 | O=C(OC1CN2CCC1CC2)c1ccccc1 (configuration not stated) | inactive: 106%
36 | CC(=O)NC(SC(=S)N(CC(C)C)CC(C)C)C(Cl)(Cl)Cl (configuration not stated) | inactive: 101%
37 | Cc1ccc(OP(=O)(Nc2ccccn2)Oc2ccc(C)cc2)cc1 | inactive: 95.6%
38 | COC(=O)c1cc2c(s1)N=C(c1ccccc1)N(C)P2(=O)N1CCOCC1 (configuration not stated) | inactive: 104%
39 | CC(C)(C)C(=O)NC(Sc1ccccc1)C(Cl)(Cl)Cl (configuration not stated) | inactive: 92.3%
40 | CCOc1ccc(C2=NCC(CBr)S2)cc1 (configuration not stated) | inactive: 96.3%
41 | O=P1(Nc2nc3ccc(Cl)cc3s2)COc2ccccc2O1 (configuration not stated) | inactive: 97.6%
42 | CC(=O)Nc1ccc(Oc2c([N+](=O)[O-])cc([N+](=O)[O-])cc2[N+](=O)[O-])cc1 | inactive: 98.3%
43 | CC(=O)Nc1ccc([As](=O)(O)O)c(O)c1 | inactive: 104%
44 | C[C@H]1OP(=O)(Oc2ccccc2)C[C@@H]2O[C@@H]21 (some centres not stated) | inactive: 100%
45 | C[C@@H]1C=CCP(=O)(Oc2ccccc2)O1 (some centres not stated) | inactive: 101%
46 | Cc1ccccc1CN(C)C(=O)COC(=O)C(O)(c1ccccc1)c1ccccc1 | inactive: 98.1%
47 | CC(=O)c1ccc(N2CC2c2ccncc2)cc1 (configuration not stated) | inactive: 97.3%

Reference: PubChem BioAssay AID2025 (NMMLSC, 2009)
